Tests used:
[1] = target: hNLRP3 inflammasome (Homo sapiens, UniProt Q96P20); assay: Agonistic effect on the expression of IL-1β in THP-1 cells after PMA-induced differentiation (HTRF); assay type: cell-based; settings: read-out: hNLRP3 EC50 (μM) (THP-1); IL-1β level, PMA-differentiated THP-1 cells, 6 hours
From the text: Experimental Example 1: Agonistic Effect of the Compound of the Invention on the Expression of IL-1β in THP-1 Cells after PMA-Induced Differentiation
In this test, a HTRF (homogeneous time-resolved fluorescence) detection method was used to test the effect of the compound of the invention on the level of downstream cytokine IL-1β of NLRP3 to evaluate the agonistic effect of the compound on hNLRP3 inflammasome or hNLRP3 inflammasome pathway at a cellular level.
Reagent: RPMI 1640 (Hyclone); heat-inactivated FBS (fetal bovine serum) (Gibco); PMA (phorbol myristal acetate) (Beyotime)
Kit: IL-1β assay kit (CISIO)
1) THP-1 cells in a logarithmic growth phase were seeded in a T75 culture flask at a density of 5×10^5 cells/well, and cultured in a cell incubator at 37° C., 5% CO2 for 24 hours, and then 1 μM PMA was used to induce THP-1 suspension cells to become adherent macrophages. The medium was RPMI 1640 containing 10% heat-inactivated FBS and 0.05 mM β-mercaptoethanol.
2) The cells were induced and cultured for 24 hours. […]
3) An appropriate amount of 10 mM DMSO solution of the compound to be tested was taken and diluted to a concentration of 2× test concentration with RPMI 1640 medium containing 2% heat-inactivated FBS. […] The supernatant was collected, and the level of IL-1β was measured in accordance with the instructions of the IL-1β detection kit. […]

Amino acid sequences for entries named in this document (tags omitted). Residues count along the entry.
UniProt Q96P20, whole entry: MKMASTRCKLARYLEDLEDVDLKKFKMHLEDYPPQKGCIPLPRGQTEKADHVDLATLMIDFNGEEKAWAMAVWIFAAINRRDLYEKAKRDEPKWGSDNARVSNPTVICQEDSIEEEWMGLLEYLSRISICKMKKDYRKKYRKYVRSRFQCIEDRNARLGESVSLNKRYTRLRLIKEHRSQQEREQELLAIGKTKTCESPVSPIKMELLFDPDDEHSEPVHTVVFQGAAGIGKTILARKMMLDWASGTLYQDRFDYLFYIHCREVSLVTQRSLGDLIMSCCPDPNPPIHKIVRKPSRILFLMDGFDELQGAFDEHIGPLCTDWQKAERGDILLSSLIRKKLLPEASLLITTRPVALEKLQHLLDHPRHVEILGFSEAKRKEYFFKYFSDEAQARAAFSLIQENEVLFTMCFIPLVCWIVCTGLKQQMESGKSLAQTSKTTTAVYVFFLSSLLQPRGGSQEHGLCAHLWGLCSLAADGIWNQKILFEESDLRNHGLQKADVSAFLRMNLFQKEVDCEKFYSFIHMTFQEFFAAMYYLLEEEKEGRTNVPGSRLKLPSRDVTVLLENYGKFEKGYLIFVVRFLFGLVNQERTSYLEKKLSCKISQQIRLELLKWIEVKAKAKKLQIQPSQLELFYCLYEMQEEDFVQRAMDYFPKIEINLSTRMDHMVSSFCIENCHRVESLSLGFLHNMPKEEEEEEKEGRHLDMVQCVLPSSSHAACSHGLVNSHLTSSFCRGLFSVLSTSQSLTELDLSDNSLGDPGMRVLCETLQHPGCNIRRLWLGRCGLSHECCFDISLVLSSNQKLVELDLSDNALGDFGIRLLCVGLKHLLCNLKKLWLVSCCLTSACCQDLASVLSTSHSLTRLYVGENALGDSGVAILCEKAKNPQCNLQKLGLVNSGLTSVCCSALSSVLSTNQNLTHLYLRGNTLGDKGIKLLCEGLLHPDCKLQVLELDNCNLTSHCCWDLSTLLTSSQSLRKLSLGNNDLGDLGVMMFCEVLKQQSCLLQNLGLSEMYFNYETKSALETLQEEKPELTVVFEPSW
UniProt Q9NR97, 27-1041 limits assumed: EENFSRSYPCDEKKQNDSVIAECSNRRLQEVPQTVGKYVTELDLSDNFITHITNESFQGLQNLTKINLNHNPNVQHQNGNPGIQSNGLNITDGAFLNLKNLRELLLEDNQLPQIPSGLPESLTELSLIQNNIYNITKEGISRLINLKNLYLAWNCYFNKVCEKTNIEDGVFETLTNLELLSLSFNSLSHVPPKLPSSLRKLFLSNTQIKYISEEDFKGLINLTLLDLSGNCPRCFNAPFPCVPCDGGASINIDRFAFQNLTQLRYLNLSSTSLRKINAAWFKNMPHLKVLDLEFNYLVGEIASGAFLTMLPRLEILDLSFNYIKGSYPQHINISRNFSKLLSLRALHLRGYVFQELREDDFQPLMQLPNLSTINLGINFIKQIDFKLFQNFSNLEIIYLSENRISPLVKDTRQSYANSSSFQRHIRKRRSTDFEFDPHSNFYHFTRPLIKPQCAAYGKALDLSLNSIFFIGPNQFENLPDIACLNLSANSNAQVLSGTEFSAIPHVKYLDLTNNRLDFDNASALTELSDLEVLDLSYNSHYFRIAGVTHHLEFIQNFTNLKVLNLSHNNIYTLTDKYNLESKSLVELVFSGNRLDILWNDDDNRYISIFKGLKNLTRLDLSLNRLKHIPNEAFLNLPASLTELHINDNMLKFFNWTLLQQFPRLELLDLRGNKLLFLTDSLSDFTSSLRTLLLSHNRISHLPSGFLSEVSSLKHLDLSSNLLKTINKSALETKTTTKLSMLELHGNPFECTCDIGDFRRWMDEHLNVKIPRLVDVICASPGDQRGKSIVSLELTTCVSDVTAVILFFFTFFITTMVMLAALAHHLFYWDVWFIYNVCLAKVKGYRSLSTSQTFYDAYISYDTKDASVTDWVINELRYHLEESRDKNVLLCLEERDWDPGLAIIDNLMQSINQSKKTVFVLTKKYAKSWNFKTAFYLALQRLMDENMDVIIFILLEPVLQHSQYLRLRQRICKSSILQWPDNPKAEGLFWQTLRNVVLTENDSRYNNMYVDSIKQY
UniProt Q9NYK1, 27-1049 limits assumed: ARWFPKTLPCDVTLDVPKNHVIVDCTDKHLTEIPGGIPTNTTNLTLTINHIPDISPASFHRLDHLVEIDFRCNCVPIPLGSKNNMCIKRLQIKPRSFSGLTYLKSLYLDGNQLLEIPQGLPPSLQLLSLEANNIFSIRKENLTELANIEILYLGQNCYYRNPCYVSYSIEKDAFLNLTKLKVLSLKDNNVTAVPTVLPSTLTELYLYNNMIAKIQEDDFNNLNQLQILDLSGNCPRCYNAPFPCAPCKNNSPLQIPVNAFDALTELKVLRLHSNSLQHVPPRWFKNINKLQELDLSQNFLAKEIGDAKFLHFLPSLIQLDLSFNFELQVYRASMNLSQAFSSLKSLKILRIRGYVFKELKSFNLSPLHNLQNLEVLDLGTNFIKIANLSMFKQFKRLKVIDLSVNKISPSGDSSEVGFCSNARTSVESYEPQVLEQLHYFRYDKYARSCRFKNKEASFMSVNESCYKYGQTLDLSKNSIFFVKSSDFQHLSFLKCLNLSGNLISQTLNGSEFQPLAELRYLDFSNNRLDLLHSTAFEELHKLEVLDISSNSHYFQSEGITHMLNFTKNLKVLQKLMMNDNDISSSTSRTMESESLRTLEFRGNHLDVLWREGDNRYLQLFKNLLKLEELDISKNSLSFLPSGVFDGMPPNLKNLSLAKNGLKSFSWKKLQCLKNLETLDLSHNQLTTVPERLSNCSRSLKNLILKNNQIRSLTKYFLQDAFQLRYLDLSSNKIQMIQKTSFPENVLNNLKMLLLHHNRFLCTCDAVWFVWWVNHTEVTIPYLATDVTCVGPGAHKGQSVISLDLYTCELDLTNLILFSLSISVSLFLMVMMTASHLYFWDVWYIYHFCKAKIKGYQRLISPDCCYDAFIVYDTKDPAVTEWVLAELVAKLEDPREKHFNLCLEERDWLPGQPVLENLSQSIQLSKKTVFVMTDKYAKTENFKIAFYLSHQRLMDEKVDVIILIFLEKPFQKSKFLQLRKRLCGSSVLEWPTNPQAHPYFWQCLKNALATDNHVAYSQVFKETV

[2] = target: hTLR8 (Homo sapiens, UniProt Q9NR97); assay: Agonistic effect on hTLR8, HEK-Blue hTLR8 cells, alkaline phosphatase secretion; settings: read-out: hTLR8 EC50, 16 hours
[3] = system: THP1-defNLRP3 cells; assay: Agonistic effect on the expression of IL-1β in NLRP3 deficient THP1 cells (THP1-defNLRP3) after PMA-induced differentiation (HTRF); settings: read-out: hNLRP3 EC50 (μM) (THP-1defNLRP3); IL-1β level, PMA-differentiated NLRP3 deficient THP1 cells, 6 hours; highest test concentration 30 μM
[4] = target: hTLR7 (Homo sapiens, UniProt Q9NYK1); assay: Agonistic effect on hTLR7, HEK-hTLR7-NF-κB-Luciferase reporter cells; settings: read-out: hTLR7 EC50, 16 hours

Nc1cc(NCC2CCCO2)c2sc(-c3ccn[nH]3)cc2n1 (single isomer, unassigned)
EC50 [1]: 0.01 µM | EC50 [2]: > 100 µM | EC50 [3]: > 30 µM | EC50 [4]: > 100 µM
